According to patent publication US6506766B1 (Abbott Laboratories, priority 1998, dated 2003):

Each compound was assayed against T1, human progesterone receptor-A [PRA] isoform (Homo sapiens, UniProt P06401) (assay: Radioligand binding with human progesterone receptor cytosol ([3H]-progesterone competition)). Settings: PRA cytosol expressed in insect SF21 cells, [3H]Prog ~0.8 nM, 4° C. overnight; Ki by Cheng-Prusoff, KL ~4.5 nM; read-out: Ki (nM) PR.
T1 construct: host or cells: insect SF21 cells (baculovirus)
T1 sequence (P06401 1-769 isoform P06401-2): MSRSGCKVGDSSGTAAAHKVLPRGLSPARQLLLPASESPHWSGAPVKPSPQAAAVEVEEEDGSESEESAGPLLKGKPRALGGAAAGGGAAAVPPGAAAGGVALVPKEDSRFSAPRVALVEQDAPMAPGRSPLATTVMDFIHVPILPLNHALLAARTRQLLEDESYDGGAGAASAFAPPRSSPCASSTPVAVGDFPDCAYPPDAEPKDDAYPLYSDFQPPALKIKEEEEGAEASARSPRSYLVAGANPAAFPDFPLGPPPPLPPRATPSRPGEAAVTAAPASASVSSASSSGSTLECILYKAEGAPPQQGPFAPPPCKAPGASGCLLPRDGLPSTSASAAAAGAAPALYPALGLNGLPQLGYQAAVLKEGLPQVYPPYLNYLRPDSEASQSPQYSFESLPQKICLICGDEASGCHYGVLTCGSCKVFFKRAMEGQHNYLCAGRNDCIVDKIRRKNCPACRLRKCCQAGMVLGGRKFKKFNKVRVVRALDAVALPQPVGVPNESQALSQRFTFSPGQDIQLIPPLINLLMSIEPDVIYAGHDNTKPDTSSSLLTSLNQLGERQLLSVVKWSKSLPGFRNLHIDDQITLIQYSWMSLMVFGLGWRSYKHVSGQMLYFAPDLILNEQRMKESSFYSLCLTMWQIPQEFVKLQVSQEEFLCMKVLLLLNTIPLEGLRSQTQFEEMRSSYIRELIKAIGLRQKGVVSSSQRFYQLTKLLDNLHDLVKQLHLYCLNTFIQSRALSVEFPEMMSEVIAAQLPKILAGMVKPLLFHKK

Q: `CCCC1Oc2cccc(OC)c2-c2ccc3c(c21)C(C)=CC(C)(C)N3` (stereo not drawn) [Example 54, 2,5-Dihydro-10-methoxy-2,2,4-trimethyl-5-propyl-1H-[1]benzopyrano[3,4-f]quinoline] was tested. Which Ki did it give?
A: The Ki was 7340 nM.

Q: How did the Ki turn out when `CCCC1Oc2ccc(O)c(Cl)c2-c2ccc3c(c21)C(C)=CC(C)(C)N3` (stereo not drawn) [Example 411, 2,5-Dihydro-9-hydroxy-10-chloro-2,2,4-trimethyl-5-propyl-1H-[1]benzopyrano[3,4-f]quinoline] was run?
A: Its Ki is 8.4 nM.

Q: For `C#CCC1Oc2cccc(OC)c2-c2ccc3c(c21)C(C)=CC(C)(C)N3` (stereo not drawn) [Example 66, 2,5-Dihydro-10-methoxy-2,2,4-trimethyl-5-(2-propynyl)-1H-[1]benzopyrano[3,4-f]quinoline], which Ki is on record?
A: Its Ki is 502 nM.

Q: `COc1cccc2c1-c1ccc3c(c1C(C=C(C)C)O2)C(C)=CC(C)(C)N3` (stereo not drawn) [Example 324, 2,5-Dihydro-10-methoxy-5-(2-methylpropenyl)-2,2,4-trimethyl-1H-[1]benzopyrano[3,4-f]quinoline] was tested. Which Ki did it give?
A: Its Ki is ≥ 10000 nM.

What follows are compounds tested against T2, human glucocorticoid receptor-α [GRX] isoform (Homo sapiens, UniProt P04150) (assay: Radioligand binding with human glucocorticoid receptor cytosol ([3H]-dexamethasone competition)). Settings: GRX cytosol expressed in insect SF21 cells, [3H]-Dex ~0.9 nM, 4° C. overnight; Ki by Cheng-Prusoff, KL ~1.5 nM; read-out: Ki (nM) GR.
T2 construct: host or cells: insect SF21 cells (baculovirus)
T2 sequence (P04150 1-777): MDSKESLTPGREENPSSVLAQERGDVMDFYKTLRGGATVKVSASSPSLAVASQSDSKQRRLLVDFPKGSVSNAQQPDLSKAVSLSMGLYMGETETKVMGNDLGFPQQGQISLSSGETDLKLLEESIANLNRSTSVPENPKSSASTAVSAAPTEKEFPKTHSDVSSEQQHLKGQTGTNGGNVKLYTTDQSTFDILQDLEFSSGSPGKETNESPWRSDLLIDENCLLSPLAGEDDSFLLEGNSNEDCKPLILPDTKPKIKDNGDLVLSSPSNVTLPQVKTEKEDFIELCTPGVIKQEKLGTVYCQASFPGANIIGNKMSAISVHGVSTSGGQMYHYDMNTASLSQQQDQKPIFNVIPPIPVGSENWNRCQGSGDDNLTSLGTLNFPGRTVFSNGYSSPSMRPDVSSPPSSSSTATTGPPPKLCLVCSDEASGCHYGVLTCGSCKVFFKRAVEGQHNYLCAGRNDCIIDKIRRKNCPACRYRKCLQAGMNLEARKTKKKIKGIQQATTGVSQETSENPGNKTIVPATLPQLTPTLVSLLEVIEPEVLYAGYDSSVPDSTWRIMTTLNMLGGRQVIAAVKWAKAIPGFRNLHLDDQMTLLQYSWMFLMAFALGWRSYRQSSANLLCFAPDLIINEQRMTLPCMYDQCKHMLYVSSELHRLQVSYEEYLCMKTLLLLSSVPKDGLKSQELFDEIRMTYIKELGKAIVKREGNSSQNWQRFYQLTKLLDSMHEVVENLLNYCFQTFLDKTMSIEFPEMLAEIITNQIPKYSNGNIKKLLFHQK

Q: Which Ki does the source give for `C=CC1Oc2cccc(OC)c2-c2ccc3c(c21)C(C)=CC(C)(C)N3` (stereo not drawn) [Example 320, 2,5-Dihydro-10-methoxy-5-ethenyl-2,2,4-trimethyl-1H-[1]benzopyrano[3,4-f]quinoline] here?
A: The Ki was 49 nM.

Q: `COc1cccc2c1-c1ccc3c(c1C(CCN(C)C)O2)C(C)=CC(C)(C)N3` (stereo not drawn) [Example 64, 2,5-Dihydro-10-methoxy-2,2,4,N,N-pentamethyl-1H-[1]benzopyrano[3,4-f]quinoline5-ethanamine] was tested. Which Ki did it give?
A: Its Ki is 62 nM.

Q: Which Ki does the source give for `CCCCC1Oc2cccc(OC)c2-c2ccc3c(c21)C(C)=CC(C)(C)N3` (stereo not drawn) [Example 20, 5-Butyl-2,5-dihydro-10-methoxy-2,2,4-trimethyl-1H-[1]benzopyrano[3,4-f]quinoline] here?
A: Its Ki is 3.7 nM.

Q: With `C=CCC1Oc2c(Br)cc(O)c(Cl)c2-c2ccc3c(c21)C(C)=CC(C)(C)N3` (stereo not drawn) [Example 397, 2,5-Dihydro-7-bromo-9-hydroxy-10-chloro-2,2,4-trimethyl-5-allyl-1H-[1]benzopyrano[3,4-f]quinoline] as the compound, how does the Ki read?
A: Its Ki is 2.3 nM.

Q: For `CCOC(=O)C1Oc2cccc(OC)c2-c2ccc3c(c21)C(C)=CC(C)(C)N3` (stereo not drawn) [Example 208, 2,5-Dihydro-10-methoxy-5-(carboethoxy)-2,2,4-trimethyl-1H-[1]benzopyrano[3,4-f]quinoline], which Ki is on record?
A: The Ki was 25 nM.

Q: `C=CC(=C)CC1Oc2cccc(OC)c2-c2ccc3c(c21)C(C)=CC(C)(C)N3` (stereo not drawn) [Example 172] was tested. Which Ki did it give?
A: The Ki was 7 nM.

Q: `COc1cccc2c1-c1ccc3c(c1C(C)O2)C(C)=CC(C)(C)N3` (stereo not drawn) [Example 57, 2,5-Dihydro-10-methoxy-2,2,4,5-tetramethyl-1H-[1]benzopyrano[3,4-f]quinoline] was tested. Which Ki did it give?
A: Its Ki is 50 nM.

Q: How did the Ki turn out when `COc1cccc2c1-c1ccc3c(c1C(CCO)O2)C(C)=CC(C)(C)N3` (stereo not drawn) [Example 199, 2,5-Dihydro-10-methoxy-5-(2-hydroxyethyl)-2,2,4-trimethyl-1H-[1]benzopyrano[3,4-f]quinoline] was run?
A: Its Ki is 106 nM.
